Where two headings read alike, the source gives them in different places.
Key:
[1] = target: human hemoglobin (human) (UniProt P69905); assay: extrapolated end point of the titration of 921 pmol/mL Hb (straight-line fit of Table 6A)
[2] = target: human hemoglobin (human) (UniProt P69905); assay: OC-Hemodia Auto III immunoassay, Hb 6.2 pmol/mL, Hpt 1.55 pmol/mL (0.25 Unit), no stool, initial value
[3] = target: human hemoglobin (human) (UniProt P69905); assay: OC-Hemodia Auto III immunoassay, Hb 6.2 pmol/mL, Hpt 12.4 pmol/mL (2 Unit), no stool, initial value
[4] = target: human hemoglobin (human) (UniProt P69905); assay: OC-Hemodia Auto III immunoassay, Hb 6.2 pmol/mL, Hpt 6.2 pmol/mL (1 Unit), no stool, initial value
[5] = target: human hemoglobin (human) (UniProt P69905); assay: OC-Hemodia Auto III immunoassay, Hb 6.2 pmol/mL, Hpt 0.775 pmol/mL (0.125 Unit), no stool, initial value
[6] = target: human hemoglobin (human) (UniProt P69905); assay: 59.4 µg/mL (921 pmol/mL) Hb + Hpt original solution at 0.250 % (vol/vol); free Hb by latex reagent No.16 + No.11
[7] = target: human hemoglobin (human) (UniProt P69905); assay: 59.4 µg/mL (921 pmol/mL) Hb + Hpt original solution at 0.500 % (vol/vol); free Hb by latex reagent No.16 + No.11
[8] = target: human hemoglobin (human) (UniProt P69905); assay: OC-Hemodia Auto III immunoassay, Hb 9.3 pmol/mL, Hpt 2.325 pmol/mL (0.25 Unit), 0.5% feces, initial value
[9] = target: human hemoglobin (human) (UniProt P69905); assay: OC-Hemodia Auto III immunoassay, Hb 9.3 pmol/mL, Hpt 9.3 pmol/mL (1 Unit), 0.5% feces, initial value
[10] = target: human hemoglobin (human) (UniProt P69905); assay: cell-based or functional assay
[11] = target: human hemoglobin (human) (UniProt P69905); assay: OC-Hemodia Auto III immunoassay, Hb 6.2 pmol/mL, Hpt 3.1 pmol/mL (0.5 Unit), no stool, initial value
[12] = target: human hemoglobin (human) (UniProt P69905); assay: OC-Hemodia Auto III immunoassay, Hb 9.3 pmol/mL, Hpt 4.65 pmol/mL (0.5 Unit), 0.5% feces, initial value
[13] = target: human hemoglobin (human) (UniProt P69905); assay: 59.4 µg/mL (921 pmol/mL) Hb + Hpt original solution at 1.000 % (vol/vol); free Hb by latex reagent No.16 + No.11
[14] = target: human hemoglobin (human) (UniProt P69905); assay: 59.4 µg/mL (921 pmol/mL) Hb + Hpt original solution at 2.000 % (vol/vol); free Hb by latex reagent No.16 + No.11
[15] = target: human hemoglobin (human) (UniProt P69905); assay: 59.4 µg/mL (921 pmol/mL) Hb + Hpt original solution at 0.125 % (vol/vol); free Hb by latex reagent No.16 + No.11
[16] = target: human hemoglobin (human) (UniProt P69905); assay: OC-Hemodia Auto III immunoassay, Hb 6.2 pmol/mL, Hpt 1.55 pmol/mL (0.25 Unit), no stool, initial value; remark: listed apart in the source
[17] = target: human hemoglobin (human) (UniProt P69905); assay: cell-based or functional assay; remark: listed apart in the source
[18] = target: human hemoglobin (human) (UniProt P69905); assay: OC-Hemodia Auto III immunoassay, Hb 6.2 pmol/mL, Hpt 6.2 pmol/mL (1 Unit), no stool, initial value; remark: listed apart in the source
[19] = target: human hemoglobin (human) (UniProt P69905); assay: OC-Hemodia Auto III immunoassay, Hb 6.2 pmol/mL, Hpt 0.775 pmol/mL (0.125 Unit), no stool, initial value; remark: listed apart in the source
[20] = target: human hemoglobin (human) (UniProt P69905); assay: OC-Hemodia Auto III immunoassay, Hb 6.2 pmol/mL, Hpt 3.1 pmol/mL (0.5 Unit), no stool, initial value; remark: listed apart in the source
[21] = target: human hemoglobin (human) (UniProt P69905); assay: OC-Hemodia Auto III immunoassay, Hb 9.3 pmol/mL, Hpt 4.65 pmol/mL (0.5 Unit), 0.5% feces, initial value; remark: listed apart in the source
[22] = target: human hemoglobin (human) (UniProt P69905); assay: OC-Hemodia Auto III immunoassay, Hb 9.3 pmol/mL, Hpt 9.3 pmol/mL (1 Unit), 0.5% feces, initial value; remark: listed apart in the source
[23] = target: human hemoglobin (human) (UniProt P69905); assay: OC-Hemodia Auto III immunoassay, Hb 9.3 pmol/mL, Hpt 2.325 pmol/mL (0.25 Unit), 0.5% feces, initial value; remark: listed apart in the source

By UniProt entry, the sequences of proteins in these tests, tags left out. Residues count along the entry.
UniProt P69905, 2-142, chain 1 of 2: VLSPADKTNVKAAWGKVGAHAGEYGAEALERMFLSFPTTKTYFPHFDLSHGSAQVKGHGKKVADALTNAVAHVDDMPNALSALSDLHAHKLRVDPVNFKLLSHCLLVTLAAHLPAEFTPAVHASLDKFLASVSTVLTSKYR

**Q.** For “Human Hpt (type 1-1), without enzyme treatment (from UniProt P00738 19-406)”, which Amount of Hpt original solution when free-Hb concentration became 0 [1] is on record?
**A.** 4.01 % (vol/vol)

**Q.** What about the Ratio to no Hpt addition (%) [2] of the same molecule?
**A.** 91%

**Q.** What about the Ratio to no Hpt addition (%) [3] of the same molecule?
**A.** 39%

**Q.** And the Ratio to no Hpt addition (%) [4]?
**A.** 72%

**Q.** And the Ratio to no Hpt addition (%) [5]?
**A.** 94%

**Q.** What about the free-Hb concentration remaining [6] of the same molecule?
**A.** 55.9 µg/mL

**Q.** What about the free-Hb concentration remaining [7] of the same molecule?
**A.** 50.8 µg/mL

**Q.** And the Ratio to no Hpt addition (%) [8]?
**A.** 95%

**Q.** What about the Ratio to no Hpt addition (%) [9] of the same molecule?
**A.** 75%

**Q.** And the Residual Hb ratio (%), 37°C 7 days, Hpt 0.775 pmol/mL (0.125 Unit), no stool [10]?
**A.** 45%

**Q.** What about the Residual Hb ratio (%), 37°C 7 days, Hpt 1.55 pmol/mL (0.25 Unit), no stool [10] of the same molecule?
**A.** 50%

**Q.** And the Residual Hb ratio (%), 37°C 7 days, Hpt 2.325 pmol/mL (0.25 Unit), 0.5% feces [10]?
**A.** 23%

**Q.** What about the Residual Hb ratio (%), 37°C 7 days, Hpt 3.1 pmol/mL (0.5 Unit), no stool [10] of the same molecule?
**A.** 57%

**Q.** And the Residual Hb ratio (%), 37°C 7 days, Hpt 4.65 pmol/mL (0.5 Unit), 0.5% feces [10]?
**A.** 44%

**Q.** What about the Residual Hb ratio (%), 37°C 7 days, Hpt 6.2 pmol/mL (1 Unit), no stool [10] of the same molecule?
**A.** 85%

**Q.** And the Residual Hb ratio (%), 37°C 7 days, Hpt 9.3 pmol/mL (1 Unit), 0.5% feces [10]?
**A.** 97%

**Q.** And the Residual Hb ratio (%), 37°C 7 days, Hpt 12.4 pmol/mL (2 Unit), no stool [10]?
**A.** 98%

**Q.** What about the Residual Hb ratio (%), 37°C 14 days, Hpt 0.775 pmol/mL (0.125 Unit), no stool [10] of the same molecule?
**A.** 22%

**Q.** And the Residual Hb ratio (%), 37°C 14 days, Hpt 1.55 pmol/mL (0.25 Unit), no stool [10]?
**A.** 30%

**Q.** And the Residual Hb ratio (%), 37°C 14 days, Hpt 2.325 pmol/mL (0.25 Unit), 0.5% feces [10]?
**A.** 21%

**Q.** And the Residual Hb ratio (%), 37°C 14 days, Hpt 3.1 pmol/mL (0.5 Unit), no stool [10]?
**A.** 44%

**Q.** And the Residual Hb ratio (%), 37°C 14 days, Hpt 4.65 pmol/mL (0.5 Unit), 0.5% feces [10]?
**A.** 41%

**Q.** And the Residual Hb ratio (%), 37°C 14 days, Hpt 6.2 pmol/mL (1 Unit), no stool [10]?
**A.** 87%

**Q.** And the Residual Hb ratio (%), 37°C 14 days, Hpt 9.3 pmol/mL (1 Unit), 0.5% feces [10]?
**A.** 96%

**Q.** What about the Residual Hb ratio (%), 37°C 14 days, Hpt 12.4 pmol/mL (2 Unit), no stool [10] of the same molecule?
**A.** 100%

**Q.** What about the residual Hb ratio, 1 Unit of Hpt, 37°C 7 days, no stool [10] of the same molecule?
**A.** > 70%

**Q.** And the Ratio to no Hpt addition (%) [11]?
**A.** 85%

**Q.** And the Ratio to no Hpt addition (%) [12]?
**A.** 88%

**Q.** What about the free-Hb concentration remaining [13] of the same molecule?
**A.** 43.7 µg/mL

**Q.** What about the free-Hb concentration remaining [14] of the same molecule?
**A.** 29.8 µg/mL

**Q.** And the free-Hb concentration remaining [15]?
**A.** 57.1 µg/mL

B1: Porcine Hpt (without enzyme treatment) (protein)
chain: AETGNEATDATDDSCPKPPEIPKGYVEHMVRYHCQTYYKLRTAGDGVYTLDSNKQWTNKVTGEKLPECEAVCGKPKNPVDQVQRIMGGSLDAKGSFPWQAKMISHHNLTSGATLINEQWLLTTAKNLRLGHKNDTKAKDIAPTLRLYVGKKQEVEIEKVIFHPDNSTVDIGLIKLKQKVPVNERVMPICLPSKDYVNVGLVGYVSGWGRNANLNFTEHLKYVMLPVADQEKCVQYYEGSTVPEKKTPKSPVGVQPILNEHTFCAGLSKYQEDTCYGDAGSAFAVHDKDDDTWYAAGILSFDKSCRTAEYGVYVRVTSILDWIQTTIADN
modifications: natural N-linked glycans on Asn 125, 151, 183, 232 (SEQ ID NO: 4)
**Q.** For B1, which Ratio to no Hpt addition (%) [16] is on record?
**A.** 89%

**Q.** What about the Amount of Hpt original solution when free-Hb concentration became 0 [1] of the same molecule?
**A.** 18.6 % (vol/vol)

**Q.** What about the Residual Hb ratio (%), 37°C 7 days, Hpt 0.775 pmol/mL (0.125 Unit), no stool [17] of the same molecule?
**A.** 40%

**Q.** And the Residual Hb ratio (%), 37°C 7 days, Hpt 1.55 pmol/mL (0.25 Unit), no stool [17]?
**A.** 41%

**Q.** What about the Residual Hb ratio (%), 37°C 7 days, Hpt 2.325 pmol/mL (0.25 Unit), 0.5% feces [17] of the same molecule?
**A.** 19%

**Q.** And the Residual Hb ratio (%), 37°C 7 days, Hpt 3.1 pmol/mL (0.5 Unit), no stool [17]?
**A.** 49%

**Q.** And the Residual Hb ratio (%), 37°C 7 days, Hpt 4.65 pmol/mL (0.5 Unit), 0.5% feces [17]?
**A.** 34%

**Q.** What about the Residual Hb ratio (%), 37°C 7 days, Hpt 6.2 pmol/mL (1 Unit), no stool [17] of the same molecule?
**A.** 79%

**Q.** What about the Residual Hb ratio (%), 37°C 7 days, Hpt 9.3 pmol/mL (1 Unit), 0.5% feces [17] of the same molecule?
**A.** 75%

**Q.** And the Residual Hb ratio (%), 37°C 14 days, Hpt 0.775 pmol/mL (0.125 Unit), no stool [17]?
**A.** 22%

**Q.** And the Residual Hb ratio (%), 37°C 14 days, Hpt 1.55 pmol/mL (0.25 Unit), no stool [17]?
**A.** 32%

**Q.** What about the Residual Hb ratio (%), 37°C 14 days, Hpt 2.325 pmol/mL (0.25 Unit), 0.5% feces [17] of the same molecule?
**A.** 16%

**Q.** What about the Residual Hb ratio (%), 37°C 14 days, Hpt 3.1 pmol/mL (0.5 Unit), no stool [17] of the same molecule?
**A.** 48%

**Q.** And the Residual Hb ratio (%), 37°C 14 days, Hpt 4.65 pmol/mL (0.5 Unit), 0.5% feces [17]?
**A.** 34%

**Q.** What about the Residual Hb ratio (%), 37°C 14 days, Hpt 6.2 pmol/mL (1 Unit), no stool [17] of the same molecule?
**A.** 79%

**Q.** What about the Residual Hb ratio (%), 37°C 14 days, Hpt 9.3 pmol/mL (1 Unit), 0.5% feces [17] of the same molecule?
**A.** 78%

**Q.** And the residual Hb ratio, 1 Unit of Hpt, 37°C 7 days, no stool [17]?
**A.** > 70%

**Q.** What about the free-Hb concentration remaining [6] of the same molecule?
**A.** 57.8 µg/mL

**Q.** What about the free-Hb concentration remaining [7] of the same molecule?
**A.** 57 µg/mL

**Q.** And the Ratio to no Hpt addition (%) [18]?
**A.** 65%

**Q.** And the Ratio to no Hpt addition (%) [19]?
**A.** 97%

**Q.** What about the Ratio to no Hpt addition (%) [20] of the same molecule?
**A.** 81%

**Q.** And the Ratio to no Hpt addition (%) [21]?
**A.** 84%

**Q.** What about the free-Hb concentration remaining [13] of the same molecule?
**A.** 55.9 µg/mL

**Q.** What about the free-Hb concentration remaining [14] of the same molecule?
**A.** 52.4 µg/mL

**Q.** What about the free-Hb concentration remaining [15] of the same molecule?
**A.** 58.6 µg/mL

**Q.** And the Ratio to no Hpt addition (%) [22]?
**A.** 69%

**Q.** What about the Ratio to no Hpt addition (%) [23] of the same molecule?
**A.** 93%

Source: patent EP4675276A1
